From ChEMBL document CHEMBL4342403, “New evolutions in the BACE1 inhibitor field from 2014 to 2018” (Bioorg Med Chem Lett, 2019)

Protein sequences, listed by entry. Tags and fused reporters are not part of them. Lines headed by an entry give the natural chain unless they say otherwise; changes in a name come on top.
UniProt P56817: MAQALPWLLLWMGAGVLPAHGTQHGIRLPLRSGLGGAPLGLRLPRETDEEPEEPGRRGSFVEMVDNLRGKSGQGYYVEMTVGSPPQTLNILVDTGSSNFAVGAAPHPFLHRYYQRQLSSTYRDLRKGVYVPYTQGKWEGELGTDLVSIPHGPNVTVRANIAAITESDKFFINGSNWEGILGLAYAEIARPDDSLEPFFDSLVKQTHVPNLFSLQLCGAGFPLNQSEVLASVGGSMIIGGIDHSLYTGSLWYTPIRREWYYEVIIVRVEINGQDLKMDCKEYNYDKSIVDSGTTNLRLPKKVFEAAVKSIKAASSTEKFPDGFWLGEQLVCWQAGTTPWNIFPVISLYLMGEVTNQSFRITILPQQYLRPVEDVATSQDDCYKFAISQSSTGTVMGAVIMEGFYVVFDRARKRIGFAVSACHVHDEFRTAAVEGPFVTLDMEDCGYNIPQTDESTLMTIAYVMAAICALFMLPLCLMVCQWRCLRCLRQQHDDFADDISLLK

Target: Beta-secretase 1 (Homo sapiens, UniProt P56817)
Assay: Inhibition of BACE1 in human H4 cells transfected with APP695 assessed as […] incubated for 18 hrs by ELISA
Assay type: cell-based

Compound `C[C@H]1C[C@H]2CSC(N)=N[C@@]2(c2nc(NC(=O)c3ccc(OC(F)F)cn3)cs2)CO1` has an IC50 of 5 nM.
